Laboratory results: BindingDB's records for doi:10.1038/304065a0 (Hoechst Pharmaceutical Research Laboratories, 1983)

Protein sequences, listed by entry. Tags and fused reporters are not part of them.
UniProt P47747, whole entry: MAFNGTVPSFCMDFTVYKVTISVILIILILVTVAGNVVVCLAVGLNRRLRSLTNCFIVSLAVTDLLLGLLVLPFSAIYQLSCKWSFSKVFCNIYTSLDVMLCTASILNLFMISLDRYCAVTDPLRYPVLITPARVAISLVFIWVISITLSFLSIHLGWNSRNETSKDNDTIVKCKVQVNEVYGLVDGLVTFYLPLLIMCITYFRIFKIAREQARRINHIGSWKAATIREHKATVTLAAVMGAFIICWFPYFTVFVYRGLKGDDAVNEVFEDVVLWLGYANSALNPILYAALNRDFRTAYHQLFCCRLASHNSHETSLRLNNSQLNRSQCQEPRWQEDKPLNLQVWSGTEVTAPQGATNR

Molecular target: Histamine H2 receptor (Cavia porcellus, UniProt P47747)

SMILES | Ki [µM]
CN/C(=N/CCSCc1nc[nH]c1C)NC#N [N-methyl-N-[2-(5-methyl-1H-4-imidazolylmethylsulfanyl)ethyl]-1-cyanoiminomethanediamine] | 0.47
CNC(=NCCSCc1csc(N=C(N)N)n1)NC#N [[3H]tiotidine] | 0.034
